System: F4
Test: purified protein, by the assay type

SIRT2 (Homo sapiens)
Km (other: SIRT2, 500 µM NAD+, 25 °C, 96-well plate): 0.033 ± 0.005 µM
Km (other: SIRT2, plate type 384 well): 0.027 ± 0.002 µM
Km (other: SIRT2, plate type 1536 well): 0.060 ± 0.009 µM

SIRT3 (Homo sapiens)
Km (other: SIRT3): 0.53 ± 0.07 µM
